miR-122 sensor = miR-122 inhibition in Huh7 cells. Huh7 miR-122 Renilla luciferase sensor, 48 h; neutral wells = 0, positive control = 100. activation (reporter increase), % at 12.5 µM. actives 0.3% (n = 340,000);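 active means mean replicate activation score at least 90 and every replicate individually at or above 90; inconclusive means only one of the two criteria met; inactive means neither criterion met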;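 further: higher luciferase means less miR-122 activity so hits act as miR-122 inhibitors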
Yeast UUG start = modulators of yeast start codon fidelity, primary screen, whole organism, S. cerevisiae, single point, plate reader. S. cerevisiae UUG-firefly luciferase reporter, luminescence/redox ratio. activity score, % at 18.7 µM. hit rate 0.13% among 350,000;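 active = replicate mean at a twofold rise or more, about +100% in these data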;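 also: firefly luciferase made from a UUG start codon reports start codon fidelity; reporter light over untreated wells divided by growth signal over untreated wells; some hits fall short of that in this replicate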
PGC1a acetyl inh = PGC1a acetylation modulation, inhibitor mode; U2OS PGC1a acetylation, AlphaScreen anti-acetyl-lysine; with virally co-expressed GCN5 acetyltransferase; inhibition, % at 15.6 µM; actives 0.17% (n = 350,000); AID 651687;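 active means every replicate shows inhibition of at least 40%; inconclusive means mean inhibition at least 40% but some replicate below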
MITF TRPM1 inh = reduces MITF-dependent TRPM1 promoter luciferase signal; inhibition, % at 12.5 µM; SK-MEL-5 TRPM1 promoter luciferase, 24 h; actives 0.83% (n = 330,000);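 active means mean inhibition across replicates of 60% or more, whatever share of single replicates reaches that level; inconclusive means some that reach 60%, reason not given; inactive means mean inhibition across replicates below 60%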
MITF TRPM1 HTS = increases MITF-driven TRPM1 promoter luciferase signal. SK-MEL-5 TRPM1-promoter luciferase, 24 h; % of positive control, neutral wells = 0. activation, % at 12.5 µM. actives 0.75% (n = 300,000);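 active means mean activation of at least 80% with every replicate also reaching 80%; inconclusive means mean reaches 80% but some replicate falls short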
Wnt act = Wnt/beta-catenin pathway activation; Wnt/beta-catenin reporter cell assay, activator, plate reader; activation, % at 9.35 µM; actives 1.2% (n = 300,000); AID 743398; in the data active means activation above about 30%, passing the limit was not always enough; inconclusive means no clear call, values can overlap the other calls
Hits are given with their value; - = inactive; ? = inconclusive; . = no result; [ ] = dose if it differs, or a comment. This is a sample that favours compounds with a hit; in the whole collection about 2.1% have one here.

SMILES | miR-122 sensor | Yeast UUG start | PGC1a acetyl inh | MITF TRPM1 inh | MITF TRPM1 HTS | Wnt act
O=C(Nc1ccc(Br)cc1Cl)c1ccc2c(=O)n3c(nc2c1)CCC3 | . | - | . | - | ? | -
CNC(=O)c1ccc(NC(=O)c2ccc3c(=O)n4c(nc3c2)CCC4)cc1 | - | - | - | - | - | -
Cc1ccc(NC(=O)c2ccc3c(=O)n4c(nc3c2)CCC4)cc1F | - | - | - | - | - | 53
C[C@@H]1CN([C@H](C)CO)C(=O)c2cc(NC(=O)Cc3ccccc3)ccc2O[C@@H](C)CCCCO[C@H]1CN(C)S(=O)(=O)c1cccs1 | - | - | - | . | . | .
COc1ccc(S(=O)(=O)Nc2cccc3c2O[C@H](CN(C)Cc2ccc(C(=O)Nc4ccccc4N)cc2)[C@H](C)CN([C@H](C)CO)C3=O)cc1 | - | - | - | . | . | .
O=C(CNC(=O)c1ccc(Br)cc1)NCC(=O)OCc1ccc(Cl)cc1 | - | - | - | - | - | -
O=C(CNC(=O)c1ccc(Cl)cc1)NNC(=O)c1ccc(Br)cc1 | - | - | - | - | - | 55
C[C@@H]1CN([C@H](C)CO)C(=O)c2cc(NS(=O)(=O)c3ccccc3)ccc2O[C@@H]1CN(C)Cc1ccc(C(=O)O)cc1 | - | - | - | . | . | .
O=C(Nc1cccc(-c2csc(Nc3ccc(Cl)cc3)n2)c1)c1ccccc1 | - | - | - | - | - | -
CC(=O)Nc1ccc(-c2csc(NCc3ccco3)n2)cc1 | - | . | - | - | 123 | .
c1cncc(-c2csc(NCc3ccco3)n2)c1 | - | - | - | - | - | -
CC(=O)Nc1ccc(S(=O)(=O)Nc2cccc(-c3csc(C)n3)c2)cc1 | 283 | - | . | - | - | -
CC(=O)Nc1cccc(-c2csc(Nc3ncccn3)n2)c1 | . | . | . | . | . | 44
Cc1nc(-c2cccc(NS(C)(=O)=O)c2)cs1 | - | - | - | - | - | -
CC(=O)Nc1ccc(-c2csc(Nc3cccc(C)n3)n2)cc1 | - | - | - | - | 87 | 48
CC(C)CC#Cc1ccc2c(c1)O[C@H](CN(C)Cc1ccc3c(c1)OCO3)[C@H](C)CN([C@@H](C)CO)S2(=O)=O | - | - | - | . | . | .
CC(=O)Nc1cccc(-c2csc(Nc3ccc(C)cn3)n2)c1 | - | - | - | - | 119 | .
C[C@H]1CN([C@@H](C)CO)C(=O)Cc2cc(NS(=O)(=O)c3cccs3)ccc2O[C@H]1CN(C)S(=O)(=O)c1ccc(Cl)cc1 | . | . | - | . | . | .
Cc1ccc(NCc2nnc(SCC(=O)Nc3ccccc3)n2CC2CCCO2)c(C)c1 (stereo not given) | 151 | . | . | - | . | -
CO[C@H]1CN(C)C(=O)c2cc(NS(=O)(=O)c3ccc(Cl)cc3)ccc2OC[C@@H](C)N(C(=O)NC(C)C)C[C@@H]1C | - | . | - | . | . | .
COc1ccc(-c2nn(-c3ccccc3)cc2/C=N/N=C(N)N)cc1OC | . | . | . | 94 | - | .
CC(=O)N1CCc2cc(S(=O)(=O)NCCCN3CCN(Cc4ccccc4)CC3)ccc21 | 302 | - | - | - | - | .
CCOC(=O)c1sc(NC(=O)CCCCCN2C(=O)c3cccc4cccc(c34)C2=O)nc1C | - | - | - | 67 | - | -
CC(=O)N1[C@H](CNC(=O)C2CC2)[C@@H](c2ccc(-c3ccccc3)cc2)[C@@H]1CO | 200[16.7 µM] | - | - | . | . | .
CC(=O)N1[C@H](CO)[C@H](c2ccc(-c3ccccc3)cc2)[C@@H]1CNC(=O)C1CC1 | - | - | - | . | . | .
SMILES | miR-122 sensor | Yeast UUG start | PGC1a acetyl inh | MITF TRPM1 inh | MITF TRPM1 HTS | Wnt act
O=C(NC[C@@H]1N[C@@H](CO)[C@H]1c1ccccc1)C1CCCC1 | - | - | - | . | . | .
CC(=O)N(C)C[C@H]1[C@H](c2ccc(-c3cccnc3)cc2)[C@@H](CO)N1C(=O)C1CC1 | 125[16.7 µM] | - | - | . | . | .
O=C(NC[C@H]1N[C@H](CO)[C@@H]1c1ccccc1)C1CCCC1 | 125[16.7 µM] | - | - | . | . | .
CO[C@H]1CN(C)C(=O)c2ccc(NC(=O)C3CC3)cc2OC[C@@H](C)N(Cc2cccnc2)C[C@H]1C | . | - | - | . | . | .
O=C(C[C@@H]1C[C@H]2c3cc(NS(=O)(=O)c4ccc(F)cc4)ccc3O[C@H]2[C@H](CO)O1)NCc1ccc(Oc2ccccc2)cc1 | 150[16.7 µM] | . | - | . | . | .
O=C(C[C@H]1C[C@@H]2c3cc(NS(=O)(=O)c4ccc(F)cc4)ccc3O[C@@H]2[C@H](CO)O1)NCc1ccc(-c2ccccc2)cc1 | - | - | - | . | . | .
CN(C)c1ccc2c(c1)[C@@H]1C[C@@H](CC(=O)NCc3ccc(Oc4ccccc4)cc3)O[C@@H](CO)[C@@H]1O2 | 96[16.7 µM] | . | - | . | . | .
O=C(C[C@@H]1C[C@H]2c3cc(NS(=O)(=O)c4ccc(F)cc4)ccc3O[C@H]2[C@H](CO)O1)NCc1ccc(-c2ccccc2)cc1 | 111[16.7 µM] | - | - | . | . | .
C[C@@H]1CN([C@H](C)CO)C(=O)Cc2cc(NC(=O)c3ccncc3)ccc2O[C@H]1CN(C)S(=O)(=O)c1ccccc1 | - | - | - | . | . | .
Cc1cc2ncc(-c3ccc(Cl)cc3)cn2n1 | - | - | - | - | 91 | -
CN(CCO)S(=O)(=O)c1ccc2c(c1)C(=NNC(N)=O)c1cc(S(=O)(=O)N(C)CCO)ccc1-2 | - | - | - | - | - | 46
COc1ccc(NC(=O)N(C)C[C@@H]2OCCCC[C@@H](C)Oc3ccc(NC(=O)NC(C)C)cc3C(=O)N([C@@H](C)CO)C[C@H]2C)cc1 | - | - | - | . | . | .
CNC[C@H]1Oc2c(NC(=O)C3CC3)cccc2C(=O)N([C@H](C)CO)C[C@H]1C | - | - | - | . | . | .
CCSc1cc(N2CCCC2)nc(-c2ccc(Cl)cc2)n1 | - | - | - | - | - | -
Clc1ccc(-c2nnc(N3CCCC3)nn2)cc1 | - | - | . | - | . | 35
Cc1csc2nc(CSc3ccc(Cl)cc3)cn12 | - | - | - | - | 92 | .
c1ccc(CSCc2cn3ccsc3n2)cc1 | - | - | - | - | 84 | .
Cc1cc(C)n2cc(CSc3ccc(Cl)cc3)nc2n1 | - | - | . | - | - | -
Clc1ccc(SCc2cn3ccsc3n2)cc1 | - | - | - | - | - | 52
CNC(=O)C[C@@H]1CC[C@@H]2[C@H](COc3ccc(NC(=O)Nc4ccccc4F)cc3C(=O)N2C)O1 | - | - | - | . | . | .
CN1CCN(C(=O)C[C@@H]2CC[C@@H]3[C@H](COC[C@H](O)CN3C(=O)C3CC3)O2)CC1 | - | . | - | . | . | .
COc1ccc2c3c([nH]c2c1)[C@@H](CO)N(C(C)=O)CC31CCN(S(=O)(=O)c2cccs2)CC1 | . | . | - | . | . | .
CN1CCN(C(=O)C[C@@H]2CC[C@@H]3[C@@H](COc4ccc(NC(=O)C5CC5)cc4C(=O)N3C)O2)CC1 | - | - | - | . | . | .
O=C(CC1CC1)Nc1ccc2c(c1)[C@H]1C[C@H](CC(=O)N3CCCCC3)O[C@@H](CO)[C@H]1O2 | - | - | - | . | . | .
Cc1noc(C)c1NC(=O)Nc1ccc2c(c1)CC(=O)N([C@@H](C)CO)C[C@@H](C)[C@@H](CN(C)C(=O)Nc1ccc(C(F)(F)F)cc1)O2 | - | - | - | . | . | .
CCCOC(=O)Nc1nc2ccccc2o1 | - | - | - | - | - | 37
